# Literature values, collected in patent publication US20220387398A1, “IMMUNE TOLERIZATION AGENTS AND POTENTIATORS” (priority 2019, published 2022).
# Chains of the proteins cited; added tags and fusions are not shown. Residues count along the entry.
# UniProt P06276, 29-602, species assumed: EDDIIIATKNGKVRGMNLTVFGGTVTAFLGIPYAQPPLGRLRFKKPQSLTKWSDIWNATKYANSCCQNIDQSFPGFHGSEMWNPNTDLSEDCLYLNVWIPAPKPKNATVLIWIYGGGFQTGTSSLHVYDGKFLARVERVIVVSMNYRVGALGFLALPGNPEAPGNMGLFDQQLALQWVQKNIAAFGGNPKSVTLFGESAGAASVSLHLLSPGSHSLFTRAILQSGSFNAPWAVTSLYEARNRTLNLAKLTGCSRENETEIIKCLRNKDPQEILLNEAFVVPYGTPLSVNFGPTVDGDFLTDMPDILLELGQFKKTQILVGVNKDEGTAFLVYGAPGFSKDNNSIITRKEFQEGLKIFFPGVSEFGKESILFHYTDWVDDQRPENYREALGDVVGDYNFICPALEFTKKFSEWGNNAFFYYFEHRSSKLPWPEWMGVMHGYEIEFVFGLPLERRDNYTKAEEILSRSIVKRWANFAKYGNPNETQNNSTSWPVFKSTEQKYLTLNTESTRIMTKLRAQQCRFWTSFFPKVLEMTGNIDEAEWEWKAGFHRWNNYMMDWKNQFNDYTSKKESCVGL
# Biological target: BChE (blood) (Homo sapiens, UniProt P06276)
# Settings: quantity and unit not given; cited from earlier work
smiles,measurement,value
"CCN(C)C(=O)Oc1cccc([C@H](C)N(C)C)c1 [Rivastigmine, rivastigmine]",Esterase BChE (blood),280 ± 110
